Experimental findings from patent publication US10285986B2, “Compounds and anti-tumor NQO1 substrates” (The Board of Trustees of the University of Illinois, priority 2011, dated 2019) are described below.

Chains of the proteins cited; added tags and fusions are not shown.
UniProt P15559, whole entry: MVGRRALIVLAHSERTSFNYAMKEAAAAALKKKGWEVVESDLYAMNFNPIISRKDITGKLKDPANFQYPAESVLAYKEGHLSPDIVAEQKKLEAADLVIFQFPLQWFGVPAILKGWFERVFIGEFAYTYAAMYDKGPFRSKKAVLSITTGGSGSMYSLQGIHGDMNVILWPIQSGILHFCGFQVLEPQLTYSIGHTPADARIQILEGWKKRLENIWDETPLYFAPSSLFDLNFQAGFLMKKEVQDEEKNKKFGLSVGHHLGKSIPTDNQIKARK

In brackets after ≈: the same amount, converted by molar mass. Read-outs that look alike come from different tables or passages of the source.

Series [1] concerns MCF-7 cells. Briefly: Cytotoxicity to MCF-7 cells with or without 25 μM dicoumarol (sulforhodamine B assay). A general note: The SRB assay estimates cell density from bound dye.
In series [2] the target is NQO1 (Homo sapiens, UniProt P15559). The series can be described thus: NQO1 enzymatic measurements in vitro.
A short description of series [3]: Solubility in organic solvents.

Take `CCCCCCCCCCCCn1c2c(c(C)cc1=O)C(=O)c1c(C)cc(=O)[nH]c1C2=O`: the IC50 (commonly the midpoint of a concentration-inhibition curve) in series [1] (read-out: IC50 vs. MCF-7 cells, Table 4.1, 2 h exposure, no DIC, ± s.e.) stood at 8 µM; in series [1] (read-out: MCF7 IC50, Table 1), 8 µM. Also, the “NQO1 Vmax” value in series [2] stood at 750 ± 20 μmol/min/μmol protein. Further, the “Catalytic Efficiency” value in series [2] (Table 1) is 8.9e+06 M⁻¹ s⁻¹. In addition, in series [3] (2:1 CH2Cl2:MeOH, Table 4.3), the “Solubility in 2:1 CH2Cl2:MeOH” value is listed as 34 mM (≈ 14.9 mg/mL). In addition, the “CH2Cl2:MeOH 2:1 solubility” value in series [3] (CH2Cl2:MeOH 2:1, Table 1) was 34 mM. In series [3] (CH2Cl2, Table 1), this compound yielded a CH2Cl2 solubility of 34 mM. The “Solubility in CH2Cl2” value in series [3] (CH2Cl2, Table 4.3) is on record as 34 mM (≈ 14.9 mg/mL). Moreover, in series [3] (DMSO, Table 1), the DMSO solubility was 1.2 mM. For the same compound, the “Solubility in DMSO” value in series [3] (DMSO, Table 4.3) amounted to 1.2 mM (≈ 0.526 mg/mL). In series [3] (THF, Table 1), the THF solubility was found to be 19 mM.
